Tests used:
hD4R (human D4.4) = hD4R (human D4.4) (Homo sapiens, UniProt P21917); assay type: binding
MOR (SNAP-mMOR) = MOR (SNAP-mMOR) (Mus musculus, UniProt P42866); experiment: BRET MOR-mediated Gαi2 protein activation; assay type: cell-based; settings: read-out: MOR Gi2 activation EC50 (in brackets), HEK 293T

Chains of the proteins cited; added tags and fusions are not shown.
UniProt P21917, whole entry: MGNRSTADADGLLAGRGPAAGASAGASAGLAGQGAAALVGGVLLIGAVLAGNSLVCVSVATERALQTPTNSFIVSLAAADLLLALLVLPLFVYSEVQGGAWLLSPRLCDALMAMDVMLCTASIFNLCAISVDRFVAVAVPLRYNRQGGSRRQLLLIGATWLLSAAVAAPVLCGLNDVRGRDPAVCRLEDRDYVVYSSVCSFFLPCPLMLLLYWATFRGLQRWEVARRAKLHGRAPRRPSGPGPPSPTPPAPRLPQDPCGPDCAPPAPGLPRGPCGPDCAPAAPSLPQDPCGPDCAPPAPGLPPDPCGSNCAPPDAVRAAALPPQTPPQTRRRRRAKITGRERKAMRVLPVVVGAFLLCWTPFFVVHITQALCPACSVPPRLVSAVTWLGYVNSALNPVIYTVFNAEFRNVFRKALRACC
UniProt P42866, whole entry: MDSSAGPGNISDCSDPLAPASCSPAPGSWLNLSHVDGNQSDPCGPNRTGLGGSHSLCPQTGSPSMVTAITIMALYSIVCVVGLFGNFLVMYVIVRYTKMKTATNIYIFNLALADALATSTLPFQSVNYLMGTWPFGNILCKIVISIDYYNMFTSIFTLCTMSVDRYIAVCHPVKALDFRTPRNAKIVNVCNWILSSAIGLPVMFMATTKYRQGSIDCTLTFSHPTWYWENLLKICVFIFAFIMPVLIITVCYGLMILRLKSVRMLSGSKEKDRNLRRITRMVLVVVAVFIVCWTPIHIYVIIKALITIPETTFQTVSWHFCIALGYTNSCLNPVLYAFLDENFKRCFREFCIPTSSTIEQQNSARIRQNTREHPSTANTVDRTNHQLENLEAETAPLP

| Structure (SMILES) | selectivity over D4R (hD4R (human D4.4)) [fold] | EC50 (MOR (SNAP-mMOR)) [µM] |
| --- | --- | --- |
| CCC(=O)C(CC(C)N(C)C)(c1ccccc1)c1ccccc1 (centres unmarked) [compound 6, methadone] | > 10 | – |
| CN(C)C(=O)C(CCNCCCCN1CCN(c2cccc(Cl)c2Cl)CC1)(c1ccccc1)c1ccccc1 [compound 28, 4-((4-(4-(2,3-Dichlorophenyl)piperazin-1-yl)butyl)amino)-N,N-dimethyl-2,2-diphenylbutanamide] | – | 1.11 |
